One substance from PMC5508335 (Journal of Veterinary Internal Medicine, 2017) can be followed below.

For this assay, the system named is thyroid TT4 response. Put plainly: TSH stimulation test, serum TT4. It is filed as in vivo, dog.
Where [1] appears, read: dogs administered hydrocortisone.

As for “rhTSH: thyrotropin (TSH) used for the stimulation test”, the “mean post-rhTSH TT4 concentration” value turned out to be 2.17 µg/dL under setting [1], 2.19 µg/dL (dogs with NTI) and 3.49 µg/dL (dogs without hypothyroidism). In addition, the “time of peak post-rhTSH TT4 concentration” value was determined as 4 h under setting [1]; 6 h (dogs with NTI and dogs without hypothyroidism). The “post-rhTSH TT4 concentration” value (dogs with hypothyroidism) was < 1.0 µg/dL.
